This passage reports IC50 results from article PMC5506883 (Heliyon, 2017).

Chains of the proteins cited; added tags and fusions are not shown.
UniProt P81908, whole entry: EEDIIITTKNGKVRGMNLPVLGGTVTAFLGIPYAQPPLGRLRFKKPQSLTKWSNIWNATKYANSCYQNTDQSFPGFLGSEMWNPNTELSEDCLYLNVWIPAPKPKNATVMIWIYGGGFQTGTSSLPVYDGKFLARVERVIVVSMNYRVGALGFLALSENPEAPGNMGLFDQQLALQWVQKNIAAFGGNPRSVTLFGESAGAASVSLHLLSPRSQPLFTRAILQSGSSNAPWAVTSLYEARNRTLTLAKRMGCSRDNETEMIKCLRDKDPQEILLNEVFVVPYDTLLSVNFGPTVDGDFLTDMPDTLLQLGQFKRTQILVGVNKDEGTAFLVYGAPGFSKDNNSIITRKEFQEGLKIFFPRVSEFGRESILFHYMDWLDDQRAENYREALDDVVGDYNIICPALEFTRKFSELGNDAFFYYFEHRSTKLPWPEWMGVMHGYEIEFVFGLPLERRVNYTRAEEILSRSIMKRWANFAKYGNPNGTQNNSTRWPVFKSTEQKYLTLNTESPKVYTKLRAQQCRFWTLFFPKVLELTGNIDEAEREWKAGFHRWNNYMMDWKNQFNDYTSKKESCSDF

The target in the assay is Horse butyrylcholinesterase (EC 3.1.1.8) (Equus caballus, UniProt P81908). Briefly: Anticholinesterase assay. The class given is biochemical. The following applies: Butyrylcholinesterase inhibition activity IC50 μM ± SEM, mean of three experiments with SEM; 15 min at 25 °C, pH 8.0.

Turning to `CNC(=O)Oc1ccc2c(c1)[C@]1(C)CCN(C)[C@@H]1N2C` [Eserine], the IC50 – broadly, the concentration that inhibits the measured activity by half – is 7.8 ± 0.27 µM.
